{"source": "paper PMC4316792", "about": "“The dehydrogenase region of the NADPH oxidase component Nox2 acts as a protein disulfide isomerase (PDI) resembling PDIA3 with a role in the binding of the activator protein p67^phox” (Frontiers in Chemistry, 2015)", "origin": "cited, not measured here", "test_system": "NADPH oxidase", "parameters": "method as in 8 sources, one per row (each row's own in cited_ref): ref Shpungin et al., [1989] ||| ref Bellavite et al., [1983]; Gabig and Lefker, [1984] ||| ref Pick et al., [1987] ||| ref Le Cabec and Maridonneau-Parini, [1995] ||| ref Nishida et al., [2005] ||| ...", "conditions": "cited from earlier work"}
{"smiles": "O=C(O)c1cc[c]([Hg][OH])cc1", "note": "[HMBA, 4-(hydroxymercuri)benzoic acid]", "values": [{"measurement": "activity of treated macrophage membrane liposomes in a cell-free oxidase activation system", "value": "inactive"}]}
